These results are taken from patent publication US12377104B1, “Methods for treating a fatty liver disease” (Madrigal Pharmaceuticals, Inc., priority 2024, dated 2025).

This series deals with adults with biopsy-confirmed NASH. The series can be described thus: MAESTRO-NASH: adverse events, serious adverse events, malignancies. Conditions: 80 mg and 100 mg groups.

On to `CC(C)c1cc(Oc2c(Cl)cc(-n3nc(C#N)c(=O)[nH]c3=O)cc2Cl)n[nH]c1=O` [Resmetirom, 2-(3,5-dichloro-4-((5-isopropyl-6-oxo-1,6-dihydropyridazin-3-yl)oxy)phenyl)-3,5-dioxo-2,3,4,5-tetrahydro-1,2,4-triazine-6-carbonitrile], for which the “patients who reported an adverse event” value fell in the range of 91.6 to 91.9%.
